Assay [1] deals with truncated human beta-secretase (residues 1-458, His6-tagged at the C-terminus) (Homo sapiens (Human), UniProt P56817). Briefly: BACE enzyme assay (fluorescence quench assay, Example 434A). It counts as biochemical.
In assay [2] the target is H4 neuroglioma cell line stably expressing APP with the KM-NL Swedish mutation (H4-APPsw); soluble Amyloid Beta 1-40 (Aβ 1-40) (Homo sapiens (Human), UniProt P56817). The assay can be described thus: BACE cell assay: soluble Aβ 1-40 in culture media of H4-APPsw cells (AlphaLISA/ELISA). It is filed as cell-based. The note with it: in vitro cell activity; H4-APPsw cells treated overnight, secreted Aβ 1-40 in culture media. On the technique in general: Bead proximity is the source of the signal in Alpha formats.

Where two headings read alike, the source gives them in different places.

`CN1OC2(N=C1N)c1cc(-c3cccc(C#N)c3)ccc1CC21CCc2ccccc2C1` (stereo not drawn) [Compound 45, 3-(spiro[spiro[2,3-dihydro-indene-2,2′-tetrahydronaphthalene]-1,5′-(3-amino-2-methyl-2H-[1,2,4]oxadiazole)]-6-yl)benzonitrile]: the IC50 was 195 nM in assay [1] and less than 5 µM in assay [2].
For the molecule `CN1O[C@]2(N=C1N)c1cc(-c3cccc(C#N)c3)ccc1C[C@]21CCc2ccccc2C1` [Compound 60], the IC50 in assay [1] (footnote a: protocols described in Example 434A) turned out to be 1860 nM.

What is called IC50 is the concentration at which inhibition is half-maximal. Low readings indicate inhibition by little substance, high ones a need for much substance.

The values are drawn from patent publication US8633212B2, “Inhibitors of beta-secretase” (Vitae Pharmaceuticals, Inc., priority 2009, dated 2014).
